These results are taken from ChEMBL document CHEMBL3868625, “Evaluation of known and novel inhibitors of Orai1-mediated store operated Ca2+ entry in MDA-MB-231 breast cancer cells using a Fluorescence Imaging Plate Reader assay” (Bioorg Med Chem, 2017).

The chains behind the UniProt entries cited, without tags or fusion partners.
UniProt Q96D31, whole entry: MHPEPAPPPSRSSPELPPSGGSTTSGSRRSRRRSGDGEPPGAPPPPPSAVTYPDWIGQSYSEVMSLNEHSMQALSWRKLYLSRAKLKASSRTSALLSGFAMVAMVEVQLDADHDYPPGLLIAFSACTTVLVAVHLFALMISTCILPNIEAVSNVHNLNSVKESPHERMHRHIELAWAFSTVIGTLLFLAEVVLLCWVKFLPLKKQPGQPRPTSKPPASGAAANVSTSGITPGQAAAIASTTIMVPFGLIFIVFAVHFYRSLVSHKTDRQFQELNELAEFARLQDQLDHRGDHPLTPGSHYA

This test has as its target Calcium release-activated calcium channel protein 1 (Homo sapiens, UniProt Q96D31). Kind of test: Inhibition of Orai1-mediated store operated Ca2+ entry in human MDA-MB-231 cells assessed as reduction in BAPTA-induced Ca2+ depletion-stimulated SOCE activity preincubated for 15 mins followed by BAPTA addition in presence of extracellular Ca2+ by PBX-based FLIPR assay. In kind it is cell-based. The method in brief: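 MDA-MB-231 cells seeded at 2 × 10^3/well and assayed 3 days later on FLIPR. Loaded 1 h at 37°C with PBX Calcium dye (2 μM), 5% Signal Enhancer and 500 μM probenecid in PSS pH 7.3. Compound applied 15 min at room temperature. BAPTA (500 μM) then chelates extracellular Ca2+, and CPA empties stores. Peak 2 (SOCE) height is given as % inhibition against DMSO control; <10% at 100 μM counts as not active.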

pIC50: −log10 of the molar value.

As to `Cc1nnsc1C(=O)Nc1ccc(-n2nc(C(F)(F)F)cc2C(F)(F)F)cc1`, the pIC50 is 5.55.

As usually defined, the pIC50 is the negative decadic logarithm of the IC50, by convention in mol/L.
